# Measured values reported in patent US20240189318A1, “THERAPEUTIC REGIMENS OF AN INHIBITOR OF THE ENZYMATIC ACTIVITY OF BRG1 AND BRM” (FOGHORN THERAPEUTICS INC., priority 2021, published 2024).
# The chains behind the UniProt entries cited, without tags or fusion partners. Where a name states a change or a piece, a line headed by the entry shows the natural chain unless it says otherwise.
# UniProt Q9UNQ0: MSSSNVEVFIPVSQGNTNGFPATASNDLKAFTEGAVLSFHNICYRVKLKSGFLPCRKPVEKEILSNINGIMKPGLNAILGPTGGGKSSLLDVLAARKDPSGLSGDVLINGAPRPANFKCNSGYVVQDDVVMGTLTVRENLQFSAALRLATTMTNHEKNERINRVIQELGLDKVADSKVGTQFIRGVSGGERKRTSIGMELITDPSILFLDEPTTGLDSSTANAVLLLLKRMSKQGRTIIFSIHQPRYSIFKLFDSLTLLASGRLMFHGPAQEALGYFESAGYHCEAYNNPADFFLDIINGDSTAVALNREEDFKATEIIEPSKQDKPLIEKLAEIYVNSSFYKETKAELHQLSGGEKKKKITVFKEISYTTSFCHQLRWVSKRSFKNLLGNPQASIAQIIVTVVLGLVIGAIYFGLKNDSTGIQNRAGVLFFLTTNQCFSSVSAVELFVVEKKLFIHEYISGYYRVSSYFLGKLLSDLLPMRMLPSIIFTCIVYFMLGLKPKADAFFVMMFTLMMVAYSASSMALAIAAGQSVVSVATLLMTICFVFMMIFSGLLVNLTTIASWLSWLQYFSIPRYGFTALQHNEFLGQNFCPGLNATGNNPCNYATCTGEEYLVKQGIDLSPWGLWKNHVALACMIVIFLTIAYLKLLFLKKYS
# UniProt P20813: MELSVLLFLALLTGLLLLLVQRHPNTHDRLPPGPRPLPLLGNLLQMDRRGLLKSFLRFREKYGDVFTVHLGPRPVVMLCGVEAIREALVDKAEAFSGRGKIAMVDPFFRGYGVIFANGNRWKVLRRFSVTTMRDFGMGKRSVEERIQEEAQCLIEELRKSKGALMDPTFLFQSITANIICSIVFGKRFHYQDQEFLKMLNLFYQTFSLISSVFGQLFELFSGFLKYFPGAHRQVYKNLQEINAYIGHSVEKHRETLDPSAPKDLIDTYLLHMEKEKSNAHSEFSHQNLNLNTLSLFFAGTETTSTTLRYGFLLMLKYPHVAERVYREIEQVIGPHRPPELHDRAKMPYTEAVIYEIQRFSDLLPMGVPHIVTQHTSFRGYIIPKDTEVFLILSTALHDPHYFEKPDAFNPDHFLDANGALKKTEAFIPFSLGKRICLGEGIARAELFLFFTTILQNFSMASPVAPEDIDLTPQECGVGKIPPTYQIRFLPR
# UniProt P08183, whole entry: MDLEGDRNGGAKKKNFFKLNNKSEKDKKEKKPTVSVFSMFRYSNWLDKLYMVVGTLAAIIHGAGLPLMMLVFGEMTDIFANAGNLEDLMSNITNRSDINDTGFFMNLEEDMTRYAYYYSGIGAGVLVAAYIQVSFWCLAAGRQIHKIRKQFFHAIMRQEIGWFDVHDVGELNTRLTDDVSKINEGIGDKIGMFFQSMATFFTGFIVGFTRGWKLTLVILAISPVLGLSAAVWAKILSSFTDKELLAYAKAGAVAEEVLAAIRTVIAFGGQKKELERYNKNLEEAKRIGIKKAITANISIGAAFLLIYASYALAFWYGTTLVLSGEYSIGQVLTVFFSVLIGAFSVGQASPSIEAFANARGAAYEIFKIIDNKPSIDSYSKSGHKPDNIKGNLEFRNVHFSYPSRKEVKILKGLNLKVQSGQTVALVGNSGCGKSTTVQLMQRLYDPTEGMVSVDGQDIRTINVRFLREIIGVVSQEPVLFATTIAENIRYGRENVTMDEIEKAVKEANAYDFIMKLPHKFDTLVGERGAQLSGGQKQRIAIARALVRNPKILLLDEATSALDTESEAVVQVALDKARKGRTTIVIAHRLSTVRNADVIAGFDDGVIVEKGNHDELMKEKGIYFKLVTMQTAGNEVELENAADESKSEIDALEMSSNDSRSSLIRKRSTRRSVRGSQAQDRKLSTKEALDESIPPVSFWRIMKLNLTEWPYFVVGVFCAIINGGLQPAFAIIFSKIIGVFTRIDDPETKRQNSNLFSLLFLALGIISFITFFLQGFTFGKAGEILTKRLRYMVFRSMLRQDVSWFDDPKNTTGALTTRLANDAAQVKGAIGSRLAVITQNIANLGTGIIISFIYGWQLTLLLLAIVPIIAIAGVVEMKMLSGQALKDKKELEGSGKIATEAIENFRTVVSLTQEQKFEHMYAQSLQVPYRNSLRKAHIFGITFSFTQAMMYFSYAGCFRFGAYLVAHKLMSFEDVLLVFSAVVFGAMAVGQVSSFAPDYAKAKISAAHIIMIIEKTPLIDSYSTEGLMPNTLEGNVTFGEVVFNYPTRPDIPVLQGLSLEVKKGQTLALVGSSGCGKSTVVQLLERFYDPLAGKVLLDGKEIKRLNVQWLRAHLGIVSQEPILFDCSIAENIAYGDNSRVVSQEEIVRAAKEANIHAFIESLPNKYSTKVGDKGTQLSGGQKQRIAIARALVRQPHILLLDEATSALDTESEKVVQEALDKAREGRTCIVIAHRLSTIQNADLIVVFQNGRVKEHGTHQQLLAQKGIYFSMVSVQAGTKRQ
# UniProt P51532, whole entry: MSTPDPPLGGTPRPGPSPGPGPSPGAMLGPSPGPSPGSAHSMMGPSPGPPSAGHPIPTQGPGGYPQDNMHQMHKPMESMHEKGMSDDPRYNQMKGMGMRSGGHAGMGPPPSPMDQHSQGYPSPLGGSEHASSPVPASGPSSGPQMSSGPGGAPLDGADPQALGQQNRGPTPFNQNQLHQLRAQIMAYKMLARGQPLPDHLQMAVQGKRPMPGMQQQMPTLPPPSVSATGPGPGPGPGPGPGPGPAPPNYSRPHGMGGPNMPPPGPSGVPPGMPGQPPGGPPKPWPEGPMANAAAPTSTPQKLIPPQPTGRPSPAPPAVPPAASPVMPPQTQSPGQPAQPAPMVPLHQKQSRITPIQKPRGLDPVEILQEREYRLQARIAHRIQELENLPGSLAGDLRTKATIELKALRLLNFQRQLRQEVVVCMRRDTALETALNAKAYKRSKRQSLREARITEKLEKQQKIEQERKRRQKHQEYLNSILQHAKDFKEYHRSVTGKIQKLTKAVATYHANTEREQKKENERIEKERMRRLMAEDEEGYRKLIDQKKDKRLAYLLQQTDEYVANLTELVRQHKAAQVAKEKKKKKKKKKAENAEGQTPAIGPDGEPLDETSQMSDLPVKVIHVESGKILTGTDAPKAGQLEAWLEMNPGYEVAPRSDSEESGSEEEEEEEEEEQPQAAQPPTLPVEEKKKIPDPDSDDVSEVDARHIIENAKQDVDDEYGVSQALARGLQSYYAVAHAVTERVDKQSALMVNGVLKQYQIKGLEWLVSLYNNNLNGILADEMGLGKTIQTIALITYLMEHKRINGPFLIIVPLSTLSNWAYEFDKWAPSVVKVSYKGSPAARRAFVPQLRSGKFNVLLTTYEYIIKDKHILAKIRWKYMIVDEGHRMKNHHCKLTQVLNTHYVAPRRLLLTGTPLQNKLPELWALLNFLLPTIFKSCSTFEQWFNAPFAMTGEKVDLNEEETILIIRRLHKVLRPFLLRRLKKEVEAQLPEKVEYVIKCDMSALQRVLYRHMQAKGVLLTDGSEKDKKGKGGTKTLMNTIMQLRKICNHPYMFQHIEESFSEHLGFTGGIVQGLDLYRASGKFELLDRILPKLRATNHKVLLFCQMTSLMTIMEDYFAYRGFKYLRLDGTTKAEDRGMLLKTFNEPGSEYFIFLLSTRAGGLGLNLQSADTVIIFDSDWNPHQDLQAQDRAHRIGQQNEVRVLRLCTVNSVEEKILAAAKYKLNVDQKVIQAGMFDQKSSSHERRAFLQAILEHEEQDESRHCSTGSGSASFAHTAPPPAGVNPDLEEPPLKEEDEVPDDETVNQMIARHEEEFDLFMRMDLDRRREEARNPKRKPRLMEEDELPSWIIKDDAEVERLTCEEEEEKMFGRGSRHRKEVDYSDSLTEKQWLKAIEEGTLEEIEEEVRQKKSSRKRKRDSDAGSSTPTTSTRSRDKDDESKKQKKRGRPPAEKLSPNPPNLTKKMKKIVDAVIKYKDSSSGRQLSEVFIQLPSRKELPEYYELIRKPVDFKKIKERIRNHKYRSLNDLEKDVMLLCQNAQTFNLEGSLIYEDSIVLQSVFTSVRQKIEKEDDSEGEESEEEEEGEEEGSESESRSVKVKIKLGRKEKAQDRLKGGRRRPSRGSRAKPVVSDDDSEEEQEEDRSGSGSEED
# Like-named read-outs stand apart in the source and are kept apart here.
# Columns and labels:
# BCRP = target: T1, BCRP (Homo sapiens, UniProt Q9UNQ0); assay: Bidirectional transport in MDCK-II cells expressing BCRP; format: in vitro ADME
# T1 construct: expressed in transfected cells; host or cells: MDCK-II
# CYP1A2 enzyme activity = assay: CYP enzyme activity in cultured human hepatocytes, CYP1A2; format: in vitro ADME; conditions: 72 hours, mean ± SD of three donors
# [1] = Bidirectional transport in MDCK control cells (passive permeability); format: in vitro ADME; conditions: dog, read-out: ER (efflux ratio), in control cells; for efflux ratio at 1 μM: 1 μM compound of formula (I); for efflux ratio at 10 μM: 10 μM compound of formula (I); for efflux ratio at 50 μM: 50 μM compound of formula (I)
# CYP3A4 mRNA = assay: CYP mRNA level (qRT-PCR) in cultured human hepatocytes, CYP3A4; format: in vitro ADME; conditions: for mRNA Fold Change Relative to the Vehicle Control: 72 hours, mean ± SD of three donors; for mRNA Fold Change Relative to DMSO Control ± SD: 0.05 μM
# CYP2C19 mRNA = assay: CYP mRNA level in cultured human hepatocytes, CYP2C19; format: in vitro ADME; conditions: 72 hours, mean ± SD of three donors
# CYP2B6 = CYP2B6 (Homo sapiens, UniProt P20813); assay: Depletion by recombinant CYP enzyme, CYP2B6; format: in vitro ADME; parameters: from tissue; host or cells: pooled human liver microsomes; conditions: recombinant 2B6; 1 μM
# CYP1A2 mRNA = assay: CYP mRNA level (qRT-PCR) in cultured human hepatocytes, CYP1A2; conditions: for mRNA Fold Change Relative to the Vehicle Control: 72 hours, mean ± SD of three donors; for mRNA Fold Change Relative to DMSO Control ± SD: 0.05 μM
# CYP2C8 mRNA = assay: CYP mRNA level in cultured human hepatocytes, CYP2C8; format: in vitro ADME; conditions: 72 hours, mean ± SD of three donors
# CYP2B6 mRNA = assay: CYP mRNA level (qRT-PCR) in cultured human hepatocytes, CYP2B6; conditions: for mRNA Fold Change Relative to the Vehicle Control: 72 hours, mean ± SD of three donors; for mRNA Fold Change Relative to DMSO Control ± SD: 0.05 μM
# CYP2C9 mRNA = conditions: 72 hours, mean ± SD of three donors
# CYP2B6 activity = assay: CYP enzyme activity in cultured human hepatocytes, CYP2B6; format: in vitro ADME; conditions: 72 hours, mean ± SD of three donors
# CYP3A activity = assay: CYP enzyme activity in cultured human hepatocytes, CYP3A4; format: in vitro ADME; conditions: 72 hours, mean ± SD of three donors
# P-gp = target: T2, P-gp (Homo sapiens, UniProt P08183); assay: Bidirectional transport in MDCK-II cells expressing P-gp; format: in vitro ADME
# T2 construct: expressed in transfected cells; host or cells: MDCK-II
# BRG1 = BRG1 (Homo sapiens, UniProt P51532); assay: biochemical
compound,measurement,setting,value
"COC[C@H](NC(=O)c1ccn(S(C)(=O)=O)c1)C(=O)Nc1nc(-c2cccc(N3C[C@@H](C)O[C@@H](C)C3)n2)cs1 [compound of formula (I), N-((S)-1-((4-(6-(cis-2,6-dimethylmorpholino)pyridin-2-yl)thiazol-2-yl)amino)-3-methoxy-1-oxopropan-2-yl)-1-(methylsulfonyl)-1H-pyrrole-3-carboxamide]","ER (efflux ratio), in transporter cells",BCRP; 1 μM compound of formula (I),3.95
same,efflux ratio at 1 μM,"BCRP; human, 1 μM compound of formula (I), read-out: ER (efflux ratio), in transporter cells",4
same,efflux ratio at 10 μM,"BCRP; human, 10 μM compound of formula (I), read-out: ER (efflux ratio), in transporter cells",1.53
same,efflux ratio at 50 μM,"BCRP; human, 50 μM compound of formula (I), read-out: ER (efflux ratio), in transporter cells",0.829
same,Enzyme Activity Fold Change Relative to the Vehicle Control,CYP1A2 enzyme activity; 0.3 nM,0.87 ± 0.08
same,Enzyme Activity Fold Change Relative to the Vehicle Control,CYP1A2 enzyme activity; 1 nM,0.81 ± 0.07
same,Enzyme Activity Fold Change Relative to the Vehicle Control,CYP1A2 enzyme activity; 3 nM,0.92 ± 0.42
same,Enzyme Activity Fold Change Relative to the Vehicle Control,CYP1A2 enzyme activity; 10 nM,0.35 ± 0.16
same,Enzyme Activity Fold Change Relative to the Vehicle Control,CYP1A2 enzyme activity; 30 nM,0.24 ± 0.12
same,Enzyme Activity Fold Change Relative to the Vehicle Control,CYP1A2 enzyme activity; 50 nM,0.21 ± 0.04
same,efflux ratio at 1 μM,[1]; BCRP assay,0.701
same,efflux ratio at 10 μM,[1]; BCRP assay,0.823
same,efflux ratio at 50 μM,[1]; BCRP assay,0.903
same,efflux ratio at 1 μM,[1]; P-gp assay,0.731
same,efflux ratio at 10 μM,[1]; P-gp assay,0.761
same,efflux ratio at 50 μM,[1]; P-gp assay,0.728
same,mRNA Fold Change Relative to the Vehicle Control,CYP3A4 mRNA; 0.3 nM,0.87 ± 0.10
same,mRNA Fold Change Relative to the Vehicle Control,CYP3A4 mRNA; 1 nM,0.35 ± 0.05
same,mRNA Fold Change Relative to the Vehicle Control,CYP3A4 mRNA; 3 nM,0.09 ± 0.05
same,mRNA Fold Change Relative to the Vehicle Control,CYP3A4 mRNA; 10 nM,0.03 ± 0.01
same,mRNA Fold Change Relative to the Vehicle Control,CYP3A4 mRNA; 30 nM,0.03 ± 0.00
same,mRNA Fold Change Relative to DMSO Control ± SD,"CYP3A4 mRNA; donor HC5-27, 72 hours",0.00233 ± 0.00153
same,mRNA Fold Change Relative to DMSO Control ± SD,"CYP3A4 mRNA; donor HC10-23, 72 hours",0.001 ± 0.000
same,mRNA Fold Change Relative to DMSO Control ± SD,"CYP3A4 mRNA; donor HC10-50, 72 hours",0.006 ± 0.001
same,mRNA Fold Change Relative to the Vehicle Control,CYP3A4 mRNA; 50 nM,0.02 ± 0.00
same,mRNA Fold Change Relative to the Vehicle Control,CYP2C19 mRNA; 0.3 nM,1.11 ± 0.03
same,mRNA Fold Change Relative to the Vehicle Control,CYP2C19 mRNA; 1 nM,1.14 ± 0.25
same,mRNA Fold Change Relative to the Vehicle Control,CYP2C19 mRNA; 3 nM,1.41 ± 0.52
same,mRNA Fold Change Relative to the Vehicle Control,CYP2C19 mRNA; 30 nM,1.10 ± 0.19
same,mRNA Fold Change Relative to the Vehicle Control,CYP2C19 mRNA; 50 nM,0.98 ± 0.32
same,% Remaining of Compound of Formula (I),CYP2B6,104%
same,mRNA Fold Change Relative to the Vehicle Control,CYP1A2 mRNA; 0.3 nM,1.12 ± 0.21
same,mRNA Fold Change Relative to the Vehicle Control,CYP1A2 mRNA; 1 nM,0.95 ± 0.09
same,mRNA Fold Change Relative to the Vehicle Control,CYP1A2 mRNA; 3 nM,0.68 ± 0.05
same,mRNA Fold Change Relative to the Vehicle Control,CYP1A2 mRNA; 10 nM,0.41 ± 0.08
same,mRNA Fold Change Relative to the Vehicle Control,CYP1A2 mRNA; 30 nM,0.26 ± 0.05
same,mRNA Fold Change Relative to DMSO Control ± SD,"CYP1A2 mRNA; donor HC5-27, 72 hours",0.044 ± 0.0036
same,mRNA Fold Change Relative to DMSO Control ± SD,"CYP1A2 mRNA; donor HC10-23, 72 hours",0.0703 ± 0.0064
same,mRNA Fold Change Relative to DMSO Control ± SD,"CYP1A2 mRNA; donor HC10-50, 72 hours",0.0567 ± 0.0025
same,mRNA Fold Change Relative to the Vehicle Control,CYP1A2 mRNA; 50 nM,0.21 ± 0.03
same,mRNA Fold Change Relative to the Vehicle Control,CYP2C8 mRNA; 1 nM,0.92 ± 0.17
same,mRNA Fold Change Relative to the Vehicle Control,CYP2C8 mRNA; 3 nM,0.78 ± 0.19
same,mRNA Fold Change Relative to the Vehicle Control,CYP2C8 mRNA; 30 nM,0.29 ± 0.06
same,mRNA Fold Change Relative to the Vehicle Control,CYP2C8 mRNA; 50 nM,0.28 ± 0.13
same,mRNA Fold Change Relative to the Vehicle Control,CYP2B6 mRNA; 0.3 nM,1.78 ± 0.24
same,mRNA Fold Change Relative to the Vehicle Control,CYP2B6 mRNA; 1 nM,1.52 ± 0.47
same,mRNA Fold Change Relative to the Vehicle Control,CYP2B6 mRNA; 3 nM,1.46 ± 0.11
same,mRNA Fold Change Relative to the Vehicle Control,CYP2B6 mRNA; 10 nM,1.71 ± 0.40
same,mRNA Fold Change Relative to the Vehicle Control,CYP2B6 mRNA; 30 nM,1.20 ± 0.08
same,mRNA Fold Change Relative to DMSO Control ± SD,"CYP2B6 mRNA; donor HC5-27, 72 hours",0.381 ± 0.029
same,mRNA Fold Change Relative to DMSO Control ± SD,"CYP2B6 mRNA; donor HC10-23, 72 hours",1.29 ± 0.21
same,mRNA Fold Change Relative to DMSO Control ± SD,"CYP2B6 mRNA; donor HC10-50, 72 hours",0.877 ± 0.127
same,mRNA Fold Change Relative to the Vehicle Control,CYP2B6 mRNA; 50 nM,0.97 ± 0.03
same,mRNA Fold Change Relative to the Vehicle Control,CYP2C9 mRNA; 0.3 nM,1.04 ± 0.22
same,mRNA Fold Change Relative to the Vehicle Control,CYP2C9 mRNA; 1 nM,1.03 ± 0.17
same,mRNA Fold Change Relative to the Vehicle Control,CYP2C9 mRNA; 3 nM,0.93 ± 0.36
same,mRNA Fold Change Relative to the Vehicle Control,CYP2C9 mRNA; 10 nM,0.42 ± 0.07
same,mRNA Fold Change Relative to the Vehicle Control,CYP2C9 mRNA; 30 nM,0.30 ± 0.05
same,mRNA Fold Change Relative to the Vehicle Control,CYP2C9 mRNA; 50 nM,0.20 ± 0.03
same,Enzyme Activity Fold Change Relative to the Vehicle Control,CYP2B6 activity; 0.3 nM,1.12 ± 0.09
same,Enzyme Activity Fold Change Relative to the Vehicle Control,CYP2B6 activity; 1 nM,1.08 ± 0.06
same,Enzyme Activity Fold Change Relative to the Vehicle Control,CYP2B6 activity; 3 nM,1.17 ± 0.02
same,Enzyme Activity Fold Change Relative to the Vehicle Control,CYP2B6 activity; 10 nM,1.09 ± 0.15
same,Enzyme Activity Fold Change Relative to the Vehicle Control,CYP2B6 activity; 30 nM,0.94 ± 0.08
same,Enzyme Activity Fold Change Relative to the Vehicle Control,CYP2B6 activity; 50 nM,0.80 ± 0.15
same,Enzyme Activity Fold Change Relative to the Vehicle Control,CYP3A activity; 1 nM,0.86 ± 0.19
same,Enzyme Activity Fold Change Relative to the Vehicle Control,CYP3A activity; 3 nM,0.73 ± 0.18
same,Enzyme Activity Fold Change Relative to the Vehicle Control,CYP3A activity; 10 nM,0.68 ± 0.16
same,Enzyme Activity Fold Change Relative to the Vehicle Control,CYP3A activity; 30 nM,0.80 ± 0.28
same,Enzyme Activity Fold Change Relative to the Vehicle Control,CYP3A activity; 50 nM,0.90 ± 0.28
same,"ER (efflux ratio), in transporter cells","P-gp; P-gp, 1 μM compound of formula (I)",15.8
same,efflux ratio at 10 μM,"P-gp; human, MDCK-MDR1, P-gp, 10 μM compound of formula (I), read-out: ER (efflux ratio), in transporter cells",11.5
same,efflux ratio at 50 μM,"P-gp; human, MDCK-MDR1, P-gp, 50 μM compound of formula (I), read-out: ER (efflux ratio), in transporter cells",1.81
same,efflux ratio at 1 μM,"P-gp; human, MDCK-MDR1, P-gp, 1 μM compound of formula (I), read-out: ER (efflux ratio), in transporter cells",16
same,Papp A→B at 1 μM,"P-gp; human, MDCK-MDR1, P-gp, 1 μM compound of formula (I), read-out: Papp A→B, in transporter cells",1.71 ×10⁻⁶ cm/s
same,IC50,BRG1,6.5 nM
